Publication PMC11247081 (Signal Transduction and Targeted Therapy, 2024)

Tests used:
ctDNA = assay: Exploratory ctDNA biomarker analysis (NGS, 1021-gene panel); format: in vivo, human; settings: biomarker subset of 28 consecutive patients at a single study center
Method: For exploratory biomarker analysis, ctDNA was evaluated with blood samples collected at baseline, and on the first day of each treatment cycle in a subset of 28 consecutive patients from a single center (Supplementary Table 6). […] The DNA library construction and sequencing were supported by the Geneplus-Beijing Institute (Beijing, China) using a DNBSEQ-T7RS sequencer (MGI Tech). See supplementary methods for details on NGS. Additionally, treatment efficacy was analyzed according to HER2 mutation subtype (NGS or PCR on blood or tumor tissue; n = 63) and HER2 expression (immunohistochemistry on available tumor tissue; n = 30).
Pharmacokinetic parameters were estimated by non-compartmental method using Phoenix WinNonlin software (version 8.3; A Certara Company, USA). The 95% CIs of ORR and DCR were calculated with the use of Clopper Pearson method. Median PFS and DoR were estimated using the Kaplan-Meier method, with the corresponding 95% CIs calculated using the Brookmeyer-Crowley methods with log-log transformation. For biomarker analysis, Pearson correlation was used to assess the linear association between ctDNA levels and PFS time; the rank-sum test compared ctDNA levels between drug-resistant and sensitive patients; Fisher’s exact test evaluated the proportion of drug-resistant and sensitive patients with ctDNA clearance within 6 months; and the Log-rank test compared PFS outcomes between patients with and without ctDNA clearance within 6 months. Statistical analyses were conducted using SAS (version 9.4) or R (version 4.2.0).
Cell-free DNA (cfDNA) and germline genomic DNA (gDNA) were extracted from plasma and leukocytes using the QIAamp Circulating Nucleic Acid Kit and the QIAamp DNA Blood Mini Kit (Qiagen, Hilden, Germany), respectively, cfDNA with ~170 bp and gDNA with > 500 bp were retained for subsequent processing. […] GATK was used to de-duplicate the reads, local realignment and base quality recalibration, and somatic mutation calling was performed using MuTect2. […]

[1] = Immunogenicity (SHR-A1811 antibody in blood samples); format: in vivo, human; settings: samples from the 63 patients
Method: Blood samples for pharmacokinetic analyses were collected pre-dose, within 5 min, 2, 8, 24, 72 h, 7, 14 day after the end of infusion during the first cycle; pre-dose and within 5 min post-dose on day 1 of cycle 2; pre-dose, within 5 min, 2 h, 7, and 14 day post-dose during cycle 3; pre-dose and post-dose on day 1 of cycles 4, 6, and 8; and pre-dose every 3 cycles since cycle 11. Blood samples for immunogenicity analyses were collected pre-dose on day 1 of cycle 1, 2, 3, 4, 6 and 8; from cycle 11 onwards, samples were collected pre-dose on day 1 of every 3 cycles.

## SHR-A1811
ctDNA
  disease control rate: 96.4%
  median progression-free survival: 7.1 months
  objective response rate: 46.4%
[1]
  Samples tested positive for the SHR-A1811 antibody: None
